The values that follow come from patent US20260109713A1, “SIRTUIN MODULATING COMPOUNDS, INCLUDING SIRTUIN ACTIVATING COMPOUNDS, AND APPLICATIONS THEREOF” (CODAGEN BIOSCIENCES, INC., priority 2022, published 2026).

Protein sequences, listed by entry. Tags and fused reporters are not part of them. Residues count along the entry.
UniProt Q9NTG7, 102-399 limits assumed: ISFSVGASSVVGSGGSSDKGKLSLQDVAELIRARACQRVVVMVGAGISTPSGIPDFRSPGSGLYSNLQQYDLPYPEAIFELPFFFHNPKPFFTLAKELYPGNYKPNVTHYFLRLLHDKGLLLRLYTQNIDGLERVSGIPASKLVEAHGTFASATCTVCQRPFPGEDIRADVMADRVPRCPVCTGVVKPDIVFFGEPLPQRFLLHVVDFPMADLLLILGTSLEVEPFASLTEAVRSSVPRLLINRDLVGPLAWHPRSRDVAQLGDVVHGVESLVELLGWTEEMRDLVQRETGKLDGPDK

The structures appear in SMILES notation.

As a reminder, the AC50 is the concentration giving half of the maximal activity seen.

Common to all, as to format: biochemical
One test deals with hSIRT3 (Homo sapiens, UniProt Q9NTG7). Briefly: Fluorescence-based SIRT3 deacetylation assay using FdL2 peptide, steady state (Conditions I). The settings on record: triplicate.
For test [1], the target named is T1, hSIRT3 102-399 (Homo sapiens, UniProt Q9NTG7). As to the kind of experiment: HPLC assay of hSIRT3 102-399 deacetylation of MnSOD peptide, Conditions I (steady state): 1000 μM NAD+, 50 μM MnSOD peptide.
The target of test [2] is T1, hSIRT3 102-399. Briefly: HPLC assay of hSIRT3 102-399 deacetylation of MnSOD peptide, Conditions II (non-steady state): 50 μM NAD+, 600 μM peptide.

Take `CC(O)c1cccc(NC(=O)c2cc3n(n2)C(C(F)(F)F)CC(c2ccc(Cl)cc2)N3)c1` (stereo not shown): the “Activity test, Conditions I, FdL” value on hSIRT3 was determined as 100.2. Also, the “Conditions I, Effect” value on hSIRT3 102-399 [1] (Conditions I (steady state), HPLC/FdL) is “Slight Activator”. At hSIRT3 102-399 [1] (read-out: AC50 (over 50% of maximal activation effect), dose-response, 1 mM NAD+, 50 μM MnSOD peptide, t=30 min), the AC50 is below 1000 nM. In addition, the “Conditions II, Effect” value at hSIRT3 102-399 [2] is recorded as “Activator”.
